Reference: patent US11066414B2, “Cot modulators and methods of use thereof” (Gilead Sciences, Inc., priority 2015, dated 2021)

What follows are compounds tested on TNFα (assay: Cot Monocyte TNFα Cell Based Assay). Details: Homo sapiens, Monocyte, read-out: EC50 TNF, LPS-stimulated human monocytes, TNFα.

Compound	EC50 [µM]
Cn1ncc2c([C@H](Nc3cc(Cl)c4ncc(C#N)c(NCC(C)(C)C)c4c3)c3cn(C4CC4)nn3)cccc21 [Example 423, (S)-8-chloro-6-(((1-cyclopropyl-1H-1,2,3-triazol-4-yl)(1-methyl-1H-indazol-4-yl)methyl)amino)-4-(neopentylamino)-quinoline-3-carbonitrile]	0.071
CC1(n2cc([C@@H](Nc3cc(Cl)c4ncc(C#N)c(NCC(C)(C)C(F)(F)F)c4c3)c3cccc4ncccc34)nn2)CC1 [Example 797, (S)-8-chloro-6-(((1-(1-methylcyclopropyl)-1H-1,2,3-triazol-4-yl)(quinolin-5-yl)methyl)amino)-4-((3,3,3-trifluoro-2,2-dimethylpropyl)amino)quinoline-3-carbonitrile]	0.077
Cn1ccc2c([C@H](Nc3cc(Cl)c4ncc(C#N)c(NCC(C)(C)C(F)(F)F)c4c3)c3cn(C4(C5CC5)CC4)nn3)cccc2c1=O [Example 783, (S)-6-(((1-([1,1′-bi(cyclopropan)]-1-yl)-1H-1,2,3-triazol-4-yl)(2-methyl-1-oxo-1,2-dihydroisoquinolin-5-yl)methyl)amino)-8-chloro-4-((3,3,3-trifluoro-2,2-dimethylpropyl)amino)quinoline-3-carbonitrile]	0.023
CC(C)(C)CNc1c(C#N)cnc2c(Cl)cc(N[C@H](c3cn(C4(C(F)(F)F)CC4)nn3)c3ccc(F)c4ncccc34)cc12 [Example 617, (S)-8-chloro-6-(((8-fluoroquinolin-5-yl)(1-(1-(trifluoromethyl)cyclopropyl)-1H-1,2,3-triazol-4-yl)methyl)amino)-4-(neopentylamino)quinoline-3-carbonitrile]	0.077
Cc1ncccc1[C@H](Nc1cc(Cl)c2ncc(C#N)c(N[C@H](CCC#N)c3ccccc3)c2c1)c1cn(C2CC2)nn1 [Example 74, 8-chloro-4-(((R)-3-cyano-1-phenylpropyl)amino)-6-(((S)-(1-cyclopropyl-1H-1,2,3-triazol-4-yl)(2-methylpyridin-3-yl)methyl)amino)-quinoline-3-carbonitrile]	0.014
CC(C)(C)CNc1c(C#N)cnc2c(Cl)cc(N[C@H](c3cn(C4(CO)CC4)nn3)c3cccc4ncsc34)cc12 [Example 458, (S)-6-((benzo[d]thiazol-7-yl(1-(1-(hydroxymethyl)cyclopropyl)-1H-1,2,3-triazol-4-yl)methyl)amino)-8-chloro-4-(neopentylamino)quinoline-3-carbonitrile]	0.087
CC(C)(C)CNc1c(C#N)cnc2c(C#N)cc(N[C@H](c3cn(C4(C(F)(F)F)CC4)nn3)c3csc4c3CCN(C3COC3)C4)cc12 [Example 429, (S)-4-(neopentylamino)-6-(((6-(oxetan-3-yl)-4,5,6,7-tetrahydrothieno[2,3-c]pyridin-3-yl)(1-(1-(trifluoromethyl)cyclopropyl)-1H-1,2,3-triazol-4-yl)methyl)amino)-quinoline-3,8-dicarbonitrile]	0.056
CC(C)(C)CNc1c(C#N)cnc2c(F)cc(N[C@H](c3cn(C4(C(F)(F)F)CC4)nn3)c3cccc4ncsc34)cc12 [Example 455, (S)-6-((benzo[d]thiazol-7-yl(1-(1-(trifluoromethyl)cyclopropyl)-1H-1,2,3-triazol-4-yl)methyl)amino)-8-fluoro-4-(neopentylamino)quinoline-3-carbonitrile]	0.222
Cc1nc(F)ccc1[C@H](Nc1cc(Cl)c2ncc(C#N)c(NCC(C)(C)C)c2c1)c1nnn(C2CC2)c1C#N [Example 686, (S)-8-chloro-6-(((5-cyano-1-cyclopropyl-1H-1,2,3-triazol-4-yl)(6-fluoro-2-methylpyridin-3-yl)methyl)amino)-4-(neopentylamino)quinoline-3-carbonitrile]	0.077
[2H]C([2H])(Nc1c(C#N)cnc2c(Cl)cc(N[C@@]([2H])(c3ccc(F)nc3)c3cn(C4CC4)nn3)cc12)C(C)(C)C [Example 112, (S)-8-chloro-6-(((1-cyclopropyl-1H-1,2,3-triazol-4-yl)(6-fluoropyridin-3-yl)methyl-d)amino)-4-((2,2-dimethylpropyl-1,1-d2)amino)quinoline-3-carbonitrile]	0.061

The remaining lines, values ahead:

EC50 [µM]	Compound
0.053	CC(C)(C)CNc1c(C#N)cnc2c(C#N)cc(N[C@H](c3cn(C4(C(F)(F)F)CC4)nn3)c3cccc4ncsc34)cc12 [Example 66, (S)-6-((benzo[d]thiazol-7-yl(1-(1-(trifluoromethyl)cyclopropyl)-1H-1,2,3-triazol-4-yl)methyl)amino)-4-(neopentylamino)quinoline-3,8-dicarbonitrile]
0.037	CC(C)(C)CNc1c(C#N)cnc2c(Cl)cc(N[C@H](c3cn(C4(C(F)F)CC4)nn3)c3ccc(F)c4ncccc34)cc12 [Example 653, (S)-8-chloro-6-(((1-(1-(difluoromethyl)cyclopropyl)-1H-1,2,3-triazol-4-yl)(8-fluoroquinolin-5-yl)methyl)amino)-4-(neopentylamino)quinoline-3-carbonitrile]
0.047	CC(C)(C)CNc1c(C#N)cnc2c(C#N)cc(N[C@H](c3cn(C4CC4)nn3)c3cccc4ncccc34)cc12 [Example 467, (S)-6-(((1-cyclopropyl-1H-1,2,3-triazol-4-yl)(quinolin-5-yl)methyl)amino)-4-(neopentylamino)quinoline-3,8-dicarbonitrile]
0.037	Cn1ccc2c([C@H](Nc3cc(Cl)c4ncc(C#N)c(NCC(C)(C)C)c4c3)c3cn(C4(C(F)(F)F)CC4)nn3)cccc2c1=O [Example 618, (S)-8-chloro-6-(((2-methyl-1-oxo-1,2-dihydroisoquinolin-5-yl)(1-(1-(trifluoromethyl)cyclopropyl)-1H-1,2,3-triazol-4-yl)methyl)amino)-4-(neopentylamino)quinoline-3-carbonitrile]
0.037	CC(C)(C)CNc1c(C#N)cnc2c(C#N)cc(N[C@H](c3cn(C4(C(F)F)CC4)nn3)c3cccc4ncsc34)cc12 [Example 424, (S)-6-((benzo[d]thiazol-7-yl(1-(1-(difluoromethyl)cyclopropyl)-1H-1,2,3-triazol-4-yl)methyl)amino)-4-(neopentylamino)quinoline-3,8-dicarbonitrile]
0.071	CC(C)(C)CNc1c(C#N)cnc2c(Cl)cc(N[C@H](c3cn(C4(C(F)F)CC4)nn3)c3cccc4c3CNC4)cc12 [Example 445, (S)-8-chloro-6-(((1-(1-(difluoromethyl)-cyclopropyl)-1H-1,2,3-triazol-4-yl)(isoindolin-4-yl)methyl)amino)-4-(neopentylamino)quinoline-3-carbonitrile]

Same assay, conditions: Homo sapiens, Monocyte, read-out: EC50 TNF, LPS-stimulated human monocytes, TNFα TR-FRET

Compound	EC50 [µM]
CC(C)(CNc1c(C#N)cnc2c(C#N)cc(N[C@H](c3cn(C45CC(C4)C5)nn3)c3ccc(F)c4ncccc34)cc12)C(F)(F)F [Example 816, (S)-6-(((1-(bicyclo[1.1.1]pentan-1-yl)-1H-1,2,3-triazol-4-yl)(8-fluoroquinolin-5-yl)methyl)amino)-4-((3,3,3-trifluoro-2,2-dimethylpropyl)amino)quinoline-3,8-dicarbonitrile]	0.023
Cc1nc(F)ccc1[C@H](Nc1cc(Cl)c2ncc(C#N)c(NCC(C)(C)C)c2c1)c1nnn(C23CC(C2)C3)c1F [Example 951, (S)-6-(((1-(bicyclo[1.1.1]pentan-1-yl)-5-fluoro-1H-1,2,3-triazol-4-yl)(6-fluoro-2-methylpyridin-3-yl)methyl)amino)-8-chloro-4-(neopentylamino)quinoline-3-carbonitrile]	0.061

The remaining lines, values ahead:

EC50 [µM]	Compound
0.039	CC(C)(CNc1c(C#N)cnc2c(C#N)cc(N[C@H](c3cn(C4(C(F)F)CC4)nn3)c3ccc(F)c4ncccc34)cc12)C(F)(F)F [Example 815, (S)-6-(((1-{1-(difluoromethyl)-cyclopropyl)-1H-1,2,3-triazol-4-yl)(8-fluoroquinolin-5-yl)methyl)amino)-4-((3,3,3-trifluoro-2,2-dimethylpropyl)amino)quinoline-3,8-dicarbonitrile]
0.037	Cc1nc(F)ccc1[C@H](Nc1cc(C#N)c2ncc(C#N)c(NCC(C)(C)C)c2c1)c1cn(C(CF)CF)nn1 [Example 869, (S)-6-(((1-(1,3-difluoropropan-2-yl)-1H-1,2,3-triazol-4-yl)(6-fluoro-2-methylpyridin-3-yl)methyl)amino)-4-(neopentylamino)quinoline-3,8-dicarbonitrile]
0.097	Cn1ccc2c([C@H](Nc3cc(C#N)c4ncc(C#N)c(NCC(C)(C)C)c4c3)c3cn(C4(C(F)F)CC4)nn3)ccnc21 [Example 873, (S)-6-(((1-(1-(difluoromethyl)cyclopropyl)-1H-1,2,3-triazol-4-yl)(1-methyl-1H-pyrrolo[2,3-b]pyridin-4-yl)methyl)amino)-4-(neopentylamino)quinoline-3,8-dicarbonitrile]

Same assay, conditions: read-out: EC50 TNF; LPS-stimulated human monocytes, TNFα

EC50 [µM]	Compound
0.147	Cc1ncsc1[C@H](Nc1cc(Cl)c2ncc(C#N)c(NCC(C)(C)C)c2c1)c1cn(C2(C(F)(F)F)CC2)nn1 [Example 701, (R)-8-chloro-6-(((4-methylthiazol-5-yl)(1-(1-(trifluoromethyl)cyclopropyl)-1H-1,2,3-triazol-4-yl)methyl)airiino)-4-(neopentylamino)quinoline-3-carbonitrile]
0.053	Cc1nc(F)ccc1[C@H](Nc1cc(Cl)c2ncc(C#N)c(NCC(C)(C)C)c2c1)c1cn(C(F)(F)CO)nn1 [Example 584, (S)-8-chloro-6-(((1-(i, 1-difluoro-2-hydroxyethyl)-1H-1,2,3-triazol-4-yl)(6-fluoro-2-methylpyridin-3-yl)methyl)amino)-4-(neopentylamino)quinoline-3-carbonitrile]

Same assay, conditions: read-out: EC50 TNF; LPS-stimulated human monocytes, TNFα TR-FRET

EC50 [µM]	Compound
0.053	COc1nccc2c([C@H](Nc3cc(C#N)c4ncc(C#N)c(NCC(C)(C)C)c4c3)c3cn(C4(C5CC5)CC4)nn3)cccc12 [Example 823, (S)-6-(((1-([1,1′-bi(cyclopropan)]-1-yl)-1H-1,2,3-triazol-4-yl)(1-methoxylsoquinolin-5-yl)methyl)amino)-4-(neopentylamino)quinoline-3,8-dicarbonitrile]
0.023	Cc1nc(F)ccc1[C@H](Nc1cc(C#N)c2ncc(C#N)c(NCC(C)(C)C)c2c1)c1nnn(C2(C3CC3)CC2)c1F [Example 865]
